Experimental data from PubChem BioAssay (NCATS).
The list shows a part of the results, in another mix than the full data. Results filed as inconclusive are left out. Activity calls are given as the source filed them. Unless noted, calls follow the shape of the dose curve; as a rule, active = well fitted curve in the direction sought with a large enough effect; inconclusive = small, poorly fitted or top-dose-only effect, or another doubt; inactive = no such curve, though single readings can be large; an effect the other way counts as inactive or inconclusive.

Protein sequences, listed by entry. Tags and fused reporters are not part of them.
UniProt O15297, whole entry: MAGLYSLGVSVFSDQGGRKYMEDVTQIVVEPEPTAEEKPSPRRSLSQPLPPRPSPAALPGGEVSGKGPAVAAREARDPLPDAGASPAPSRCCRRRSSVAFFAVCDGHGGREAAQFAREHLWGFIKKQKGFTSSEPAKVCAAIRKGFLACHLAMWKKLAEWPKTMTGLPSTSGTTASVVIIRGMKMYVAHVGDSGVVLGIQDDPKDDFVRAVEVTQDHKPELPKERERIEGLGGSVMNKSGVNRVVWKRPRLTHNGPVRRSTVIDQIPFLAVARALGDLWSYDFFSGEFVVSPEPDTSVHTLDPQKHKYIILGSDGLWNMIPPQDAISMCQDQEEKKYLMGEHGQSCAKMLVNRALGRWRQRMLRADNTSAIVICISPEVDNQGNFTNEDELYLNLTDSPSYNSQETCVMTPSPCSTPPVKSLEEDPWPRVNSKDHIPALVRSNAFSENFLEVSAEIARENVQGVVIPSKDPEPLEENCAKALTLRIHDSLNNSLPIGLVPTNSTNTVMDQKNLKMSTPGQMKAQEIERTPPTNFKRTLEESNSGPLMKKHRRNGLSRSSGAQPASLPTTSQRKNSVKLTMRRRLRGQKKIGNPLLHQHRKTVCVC
UniProt Q99828, whole entry: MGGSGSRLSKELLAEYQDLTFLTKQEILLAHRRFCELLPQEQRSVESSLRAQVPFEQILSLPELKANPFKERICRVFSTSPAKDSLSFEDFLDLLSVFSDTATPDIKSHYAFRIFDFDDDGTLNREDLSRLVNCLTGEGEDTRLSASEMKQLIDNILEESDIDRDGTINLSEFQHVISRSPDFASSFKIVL
UniProt P10635, whole entry: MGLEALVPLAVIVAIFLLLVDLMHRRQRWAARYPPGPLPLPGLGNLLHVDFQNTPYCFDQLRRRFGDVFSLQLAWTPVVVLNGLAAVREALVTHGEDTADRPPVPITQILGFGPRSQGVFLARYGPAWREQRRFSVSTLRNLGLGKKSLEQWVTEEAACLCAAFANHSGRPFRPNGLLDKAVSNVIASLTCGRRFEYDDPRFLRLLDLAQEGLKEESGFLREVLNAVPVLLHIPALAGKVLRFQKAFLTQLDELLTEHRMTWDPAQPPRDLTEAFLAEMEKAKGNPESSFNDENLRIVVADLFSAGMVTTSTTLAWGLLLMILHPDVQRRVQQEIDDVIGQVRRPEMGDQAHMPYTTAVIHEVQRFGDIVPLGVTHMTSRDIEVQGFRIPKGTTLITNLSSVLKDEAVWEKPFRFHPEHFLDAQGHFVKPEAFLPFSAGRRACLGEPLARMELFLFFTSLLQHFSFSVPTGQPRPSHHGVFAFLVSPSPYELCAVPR
UniProt P08684, whole entry: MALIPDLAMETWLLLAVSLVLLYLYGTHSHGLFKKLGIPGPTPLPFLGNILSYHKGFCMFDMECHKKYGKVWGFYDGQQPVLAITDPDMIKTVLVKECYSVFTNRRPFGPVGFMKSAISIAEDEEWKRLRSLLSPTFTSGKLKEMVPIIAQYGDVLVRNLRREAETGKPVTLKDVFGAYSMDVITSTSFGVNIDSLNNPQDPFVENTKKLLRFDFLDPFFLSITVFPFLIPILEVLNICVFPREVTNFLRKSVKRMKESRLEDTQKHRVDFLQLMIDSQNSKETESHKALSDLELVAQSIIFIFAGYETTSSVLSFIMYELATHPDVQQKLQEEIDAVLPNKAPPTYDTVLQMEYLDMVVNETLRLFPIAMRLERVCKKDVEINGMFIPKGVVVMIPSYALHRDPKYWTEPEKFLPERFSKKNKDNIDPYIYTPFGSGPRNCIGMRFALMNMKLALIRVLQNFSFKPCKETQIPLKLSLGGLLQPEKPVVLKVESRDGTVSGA
UniProt P11712, whole entry: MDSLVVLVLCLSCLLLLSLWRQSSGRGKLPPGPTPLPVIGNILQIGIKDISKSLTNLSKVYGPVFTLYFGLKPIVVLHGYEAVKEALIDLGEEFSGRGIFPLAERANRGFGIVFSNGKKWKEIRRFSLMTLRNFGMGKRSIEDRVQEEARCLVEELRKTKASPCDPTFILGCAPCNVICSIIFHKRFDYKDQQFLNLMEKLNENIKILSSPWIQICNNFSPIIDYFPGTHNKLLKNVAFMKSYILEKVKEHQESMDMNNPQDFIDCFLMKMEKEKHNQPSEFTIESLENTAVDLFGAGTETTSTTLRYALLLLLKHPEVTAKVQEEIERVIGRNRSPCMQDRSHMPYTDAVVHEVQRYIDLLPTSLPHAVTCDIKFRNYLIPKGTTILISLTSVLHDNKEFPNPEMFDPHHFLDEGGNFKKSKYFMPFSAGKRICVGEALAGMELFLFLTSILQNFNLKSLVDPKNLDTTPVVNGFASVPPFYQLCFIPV
UniProt O95398, whole entry: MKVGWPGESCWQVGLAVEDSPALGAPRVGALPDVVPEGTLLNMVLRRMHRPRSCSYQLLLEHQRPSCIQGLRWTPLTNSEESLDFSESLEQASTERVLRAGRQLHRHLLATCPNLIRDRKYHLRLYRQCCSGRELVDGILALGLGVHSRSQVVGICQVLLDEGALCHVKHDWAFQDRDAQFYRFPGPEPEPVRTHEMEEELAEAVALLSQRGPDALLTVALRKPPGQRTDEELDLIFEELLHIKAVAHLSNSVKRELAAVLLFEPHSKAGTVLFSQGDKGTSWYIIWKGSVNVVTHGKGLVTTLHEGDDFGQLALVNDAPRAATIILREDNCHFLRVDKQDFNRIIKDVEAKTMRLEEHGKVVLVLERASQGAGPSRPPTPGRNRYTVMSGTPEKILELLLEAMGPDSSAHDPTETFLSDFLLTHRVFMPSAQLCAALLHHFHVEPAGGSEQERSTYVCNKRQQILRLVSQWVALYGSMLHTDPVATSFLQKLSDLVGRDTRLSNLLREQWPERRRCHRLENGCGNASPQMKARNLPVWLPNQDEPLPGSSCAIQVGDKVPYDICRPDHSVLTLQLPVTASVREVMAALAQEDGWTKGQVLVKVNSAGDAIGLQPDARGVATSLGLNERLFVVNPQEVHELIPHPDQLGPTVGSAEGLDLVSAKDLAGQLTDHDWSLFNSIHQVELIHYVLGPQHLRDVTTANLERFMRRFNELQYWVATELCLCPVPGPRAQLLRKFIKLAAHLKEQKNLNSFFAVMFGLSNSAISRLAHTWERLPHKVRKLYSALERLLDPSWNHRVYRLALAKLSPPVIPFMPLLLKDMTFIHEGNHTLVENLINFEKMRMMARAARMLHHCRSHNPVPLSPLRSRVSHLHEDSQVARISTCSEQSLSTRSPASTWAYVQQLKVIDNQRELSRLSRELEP
UniProt Q8WZA2, whole entry: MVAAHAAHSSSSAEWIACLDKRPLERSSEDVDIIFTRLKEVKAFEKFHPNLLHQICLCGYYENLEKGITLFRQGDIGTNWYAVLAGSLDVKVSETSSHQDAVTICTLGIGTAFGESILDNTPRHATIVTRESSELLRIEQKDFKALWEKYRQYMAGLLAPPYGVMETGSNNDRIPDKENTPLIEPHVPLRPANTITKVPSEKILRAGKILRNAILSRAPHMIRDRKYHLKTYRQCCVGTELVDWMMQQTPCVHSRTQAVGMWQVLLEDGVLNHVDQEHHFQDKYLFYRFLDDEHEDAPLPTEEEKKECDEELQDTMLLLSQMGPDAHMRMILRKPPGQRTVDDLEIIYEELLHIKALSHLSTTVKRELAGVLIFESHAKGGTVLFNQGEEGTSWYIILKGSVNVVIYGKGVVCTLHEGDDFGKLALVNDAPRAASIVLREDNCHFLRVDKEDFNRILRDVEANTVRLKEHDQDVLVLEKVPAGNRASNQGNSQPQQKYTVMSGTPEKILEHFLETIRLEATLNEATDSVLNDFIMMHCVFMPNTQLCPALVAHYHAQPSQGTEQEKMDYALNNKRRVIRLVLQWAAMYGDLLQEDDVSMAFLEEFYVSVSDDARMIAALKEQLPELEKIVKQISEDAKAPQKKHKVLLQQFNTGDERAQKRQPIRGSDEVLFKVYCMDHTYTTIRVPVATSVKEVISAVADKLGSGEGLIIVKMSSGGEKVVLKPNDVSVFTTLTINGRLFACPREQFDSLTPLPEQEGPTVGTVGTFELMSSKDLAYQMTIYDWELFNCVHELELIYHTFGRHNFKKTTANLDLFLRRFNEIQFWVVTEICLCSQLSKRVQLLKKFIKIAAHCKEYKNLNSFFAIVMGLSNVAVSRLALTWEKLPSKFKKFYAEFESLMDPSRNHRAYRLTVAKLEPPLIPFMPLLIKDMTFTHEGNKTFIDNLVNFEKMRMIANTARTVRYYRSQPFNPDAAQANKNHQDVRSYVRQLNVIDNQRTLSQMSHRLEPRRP
UniProt Q9GZX7, whole entry: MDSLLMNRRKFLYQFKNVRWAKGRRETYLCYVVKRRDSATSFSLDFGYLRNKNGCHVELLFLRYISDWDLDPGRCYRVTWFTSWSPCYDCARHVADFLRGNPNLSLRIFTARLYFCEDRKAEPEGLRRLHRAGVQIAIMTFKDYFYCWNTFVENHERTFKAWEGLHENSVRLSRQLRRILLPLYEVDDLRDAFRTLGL

Experiments:
[1] = qHTS of pediatric cancer cell lines to identify multiple opportunities for drug repurposing: Primary screen for Rh30 cells (AID 1347107); conditions: Rh30 rhabdomyosarcoma viability, CellTiter-Glo luminescence, 48 h; at 46 µM (top of the series) unless noted; also: % is scaled to controls: 0 for no effect and ±100 for the full control effect; nearly all actives have a fitted effect of over 75% in size
How it was run: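 Cells (500-1,000/well) in growth media were settled 5 h at 37 degrees C, then given compounds for 48 h. Viability was read as CellTiter-Glo luminescence. Primary runs used MIPE at 11 points (0.78 nM-46 µM) and NPC at 8 points (0.59 nM-46 µM); follow-ups used 11 points.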

[2] = qHTS of pediatric cancer cell lines to identify multiple opportunities for drug repurposing: Primary screen for Rh41 cells (AID 1347108); conditions: Rh41 rhabdomyosarcoma viability, CellTiter-Glo luminescence, 48 h; at 92.7 µM (top of the series) unless noted;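 also: luminescence drop marks cytotoxic hits; nearly all actives have a fitted effect of over 70% in size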
How it was run: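 Viability was measured as metabolically active cells after 48 hours of treatment, read by CellTiter-Glo luminescence. Compounds were tested at multiple final concentrations, giving concentration-response curves.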

[3] = qHTS to identify inhibitors of the type 1 interferon - major histocompatibility complex class I in skeletal muscle: primary screen against the NCATS Pharmaceutical Collection (AID 1347407); conditions: human skeletal muscle cells, IFN-b-induced MHC-I HiBiT luminescence, 24 h; at 45.9 µM (top of the series) unless noted;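 also: luminescence of HiBiT knocked into endogenous HLA-B as interferon-induced MHC class I level; % is scaled to controls: 0 for no effect and ±100 for the full control effect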
How it was run: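 A qHTS format is used: 8-point, 1:5 compound series with 46 uM top final concentration, applied alongside 4 ng/ml IFN-beta to HLA-B*08:01-HiBiT knock-in myoblasts. Luminescence is measured after 24 h treatment.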

[4] = biological target: Protein phosphatase 1D (Homo sapiens) (UniProt O15297); assay: RapidFire Mass Spectrometry qHTS Assay for Modulators of WT P53-Induced Phosphatase 1 (WIP1) (AID 1347424); conditions: WIP1 dephosphorylation of phosphopeptide, RapidFire MS; at 63 µM (top of the series) unless noted;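 also: amount of dephosphorylated VEPPL-S-QETFS peptide product formed by WIP1; plate controls were DMSO wells for no effect and GSK830371 inhibitor control at 10 µM for full effect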
How it was run: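 Mass-spectrometric measurement of dephosphorylated peptide after a 5 min room-temperature reaction of 10 nM WIP1 with 2 uM phosphopeptide, following 1 h compound preincubation in 30 mM MgCl2 buffer.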

[5] = biological target: Protein phosphatase 1D (Homo sapiens) (UniProt O15297); assay: Rhodamine-PBP qHTS Assay for Modulators of WT P53-Induced Phosphatase 1 (WIP1) (AID 1347425); conditions: recombinant WIP1, Rhodamine-PBP phosphate fluorescence, real-time; at 57.5 µM (top of the series) unless noted; also: % of control where 0% means no effect
How it was run: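 WIP1 (5 nM final) was preincubated with compound for 1 hour at room temperature. It then dephosphorylated 10 uM VEPPL-pS-QETFS peptide in Tris-HCl pH 7.5 with 30 mM MgCl2. Released Pi was detected by 10 uM Rh-PBP fluorescence (ex 525/em 598 nm) read at 1-min intervals for 11 min, as delta f1 - f0.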

[6] = biological target: Calcium and integrin-binding protein 1 (Homo sapiens) (UniProt Q99828); assay: Primary qHTS for Identification of Calcium Integrin Binding Protein 1 (CIB1) Competitor (AID 1508620); conditions: CIB1-GST / FITC-alphaIIb peptide fluorescence polarization; at 114 µM (top of the series) unless noted;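 also: GST tagged CIB1 binding a fluorescein labelled alphaIIb integrin peptide tracer; top concentration of the series differs between compounds; % is scaled to controls: 0 for no effect and ±100 for the full control effect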
How it was run: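 Fluorescence polarization competition: CIB1-GST (1 uM final) preincubated with compound 15 min at room temperature, then FITC-labeled alphaIIb peptide (100 nM final) added for another 15 min. Polarization read at Ex 480/Em 540.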

[7] = Primary qHTS for small molecule stabilizers of the endoplasmic reticulum resident proteome: Secreted ER Calcium Modulated Protein (SERCaMP) assay (AID 1508630); conditions: SH-SY5Y GLuc-SERCaMP secretion, thapsigargin, luminescence; at 38.4 µM (top of the series); also: % is scaled to controls: 0 for no effect and ±100 for the full control effect
How it was run: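 The SH-SY5Y reporter protocol was run at 3 concentrations up to 38.3 uM (primary) or 11 concentrations (follow-up): 16 h compound, 100 nM thapsigargin for 4 h, then extracellular luciferase luminescence.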

[8] = A High-Content qHTS Against Drug Library for the Identification of Small Molecules that Inhibit DYT1 Early Onset Primary Dystonia-Associated Cell Pathology (AID 1645839; calls by dose curve); conditions: HEK293 Flp-In EGFP-delE TorsinA, punctate imaging, 48 h; at 46.1 µM (top of the series) unless noted
How it was run: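 Induced EGFP-delE TorsinA cells are imaged after 48 h of compound treatment. Punctate fusion-protein distribution gives the %pathology value, while nuclei counts flag toxicity. Wild-type EGFP-hTOR1A cells define the normal pattern.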

[9] = biological target: Cytochrome P450 2D6 (Homo sapiens) (UniProt P10635); assay: Cytochrome P450 family 2 subfamily D member 6 (CYP2D6) small molecule antagonists: luciferase biochemical (cell-free) qHTS assay (AID 1645840; active = well fitted curve in the direction sought with a large enough effect in the repeat runs; an effect the other way counts as inactive or inconclusive; also: potency is read from the fitted curve at half-maximal effect; nearly all actives have a fitted effect of over 55% in size)
How it was run: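 P450-Glo CYP2D6 system: proluciferin substrate converted by enzyme to luciferin, read by luminescence proportional to activity. Enzyme-substrate mix with compound 10 min at room temperature, then NADPH regeneration 1 h before detection reagent.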

[10] = biological target: Cytochrome P450 3A4 (Homo sapiens) (UniProt P08684); assay: Cytochrome P450 family 3 subfamily A member 4 (CYP3A4) small molecule antagonists: luciferase qHTS assay (AID 1645841; active = well fitted curve in the direction sought with a large enough effect in the repeat runs; an effect the other way counts as inactive or inconclusive; also: nearly all actives have a fitted effect of over 45% in size)
[11] = biological target: Cytochrome P450 2C9 (Homo sapiens) (UniProt P11712); assay: Cytochrome P450 family 2 subfamily C member 9 (CYP2C9) small molecule antagonists: luciferase qHTS assay (AID 1645842; active = well fitted curve in the direction sought with a large enough effect in the repeat runs; an effect the other way counts as inactive or inconclusive; also: % is scaled to controls: 0 for no effect and ±100 for the full control effect; nearly all actives have a fitted effect of over 55% in size); conditions: P450-Glo CYP2C9 enzyme assay, luciferin luminescence; at 57.4 µM (top of the series) unless noted
How it was run: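 P450-Glo CYP2C9 system: proluciferin substrate with enzyme in mix containing 0.4% BSA, 10 min at room temperature, then NADPH regeneration solution added and incubated 1 h at 37C. Detection reagent stopped reaction; luminescence read after 20 min as RLU.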

[12] = Primary qHTS for inhibitors of nuclear receptor binding SET domain protein 2 (NSD2) in an RCH-ACV wild type WT cells (2C) (AID 1645877); conditions: RCH-ACV (leukaemia line) NSD2 WT (2C) viability, CellTiter-Glo, 72 h; at 44.9 µM (top of the series) unless noted; also: % is scaled to controls: 0 for no effect and ±100 for the full control effect; nearly all actives have a fitted effect of over 70% in size
Description: Assay Provider: Jonathan D. Licht, MD
University of Florida College of Medicine, Gainesville, FL
Mutations in epigenetic regulators are common in relapsed pediatric acute lymphoblastic leukemia (ALL). Here, we uncovered the mechanism underlying the relapse of ALL driven by an activating mutation of the NSD2 histone methyltransferase (p.E1099K). […] Correction of this mutation restored glucocorticoid sensitivity. The transcriptional response to glucocorticoids was blocked in NSD2 mutant cells due to depressed glucocorticoid receptor (GR) levels and the failure of glucocorticoids to autoactivate GR expression. […] Pre-treatment of NSD2 p.E1099K cell lines and PDX samples with PRC2 inhibitors reversed glucocorticoid resistance in vitro and in vivo.
High-throughput drug screening of isogenic RCH-ACV cell lines was performed at the National Center for Advancing Translational Science (NCATS), National Institutes of Health as previously described (1). Briefly, isogenic RCH-ACV NSD2 p.E1099K mutant (9B) and WT cells (2C) were plated at 500 cells/well in a 1536-well plate with a 72-hour incubation with compounds prior to addition of CellTiter-Glo to assess cell viability. NCATS libraries screened include: NPC, MIPE 5.0, Kinase and NPACT. To determine compound activity in the qHTS assay, the concentration-response data for each sample was plotted and modeled by a four-parameter logistic fit yielding IC50 and efficacy (maximal response) values. The area under the curve (AUC) of the dose-response curve ensures both efficacy (magnitude of cell killing) and potency (concentration that elicits cell killing) are accounted for in the analysis of activity.
1. Tobie D Lee, Olivia W Lee, Kyle R Brimacombe, Lu Chen, Rajarshi Guha, Sabrina Lusvarghi, Bethilehem G Tebase, Carleen Klumpp-Thomas, Robert W Robey, Suresh V Ambudkar, Min Shen, Michael M Gottesman, Matthew D Hall. A High-Throughput Screen of a Library of Therapeutics Identifies Cytotoxic Substrates of P-glycoprotein. Mol Pharmacol. 2019, Nov;96(5):629-640.

[13] = biological target: Rap guanine nucleotide exchange factor 3 (Homo sapiens) (UniProt O95398); assay: Confirmatory qHTS for agonist of cAMP-regulated guanine nucleotide exchange factor 3 (EPAC1) (AID 1645881); conditions: EPAC1 Rap1B BODIPY-GDP exchange fluorescence, 100% = cAMP control response; at 154 µM (top of the series);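 also: EPAC1 catalysed release of BODIPY-GDP from Rap1B seen as fluorescence loss; nearly all actives have a fitted effect of over 75% in size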
[14] = biological target: Rap guanine nucleotide exchange factor 4 (Homo sapiens) (UniProt Q8WZA2); assay: Confirmatory qHTS for agonist of cAMP-regulated guanine nucleotide exchange factor 4 (EPAC2) (AID 1645884); conditions: EPAC2 GEF activity, Rap1B-BODIPY-GDP fluorescence, percent relative to cAMP agonist control; at 154 µM (top of the series);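 also: nucleotide exchange releases bodipy-GDP from Rap1 and this lowers its fluorescence; % is scaled to controls: 0 for no effect and ±100 for the full control effect; nearly all actives have a fitted effect of over 65% in size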
[15] = biological target: Rap guanine nucleotide exchange factor 4 (Homo sapiens) (UniProt Q8WZA2); assay: Confirmatory qHTS for antagonist of cAMP-regulated guanine nucleotide exchange factor 4 (EPAC2) (AID 1645885); conditions: EPAC2 Rap1B-BODIPY-GDP exchange fluorescence, biochemical; at 114 µM (top of the series); also: nearly all actives have a fitted effect of over 25% in size
[16] = Validation qHTS assay for inhibitors of Activation Induced Cytidine Deaminase (AID): UDG Counterscreen signal (AID 1347427); conditions: biochemical UDG counterscreen, fluorescence signal; at 115 µM (top of the series); also: 0% is about no effect
How it was run: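 Fluorescence at 560 nm excitation, 665 nm emission reports UDG signal after 250 mM NaOH (2x) addition and 30 min. Enzymes (AID 1 uM, UDG 2 U/mL, at 4/3x) preincubated 10 min with compound, then 4 h with 4x 250 nM DJC20/DJC23 substrate at room temperature.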

[17] = biological target: Single-stranded DNA cytosine deaminase (Homo sapiens) (UniProt Q9GZX7); assay: Validation qHTS assay for inhibitors of Activation Induced Cytidine Deaminase (AID): AID signal (AID 1347429); conditions: Recombinant AID, FRET ssDNA deamination with UDG, fluorescence; at 115 µM (top of the series); also: % is scaled to controls: 0 for no effect and ±100 for the full control effect
How it was run: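 Steps: dispense AID with UDG; pin-transfer compound up to 114 uM final; add DJC20/DJC23 substrate and hold 4 hr at room temperature; add NaOH, hold 30 min; read FRET signal (540/590 nm).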

CCOP(=O)(CC)Oc1ccc([N+](=O)[O-])cc1 (configuration not stated)
active: Potency [9] 977 nM
inactive: activity change, negative = cytotoxic [1] 3.59% | activity change, negative = cytotoxic [2] 5.02% [at 46 µM] | activity change, negative = inhibition [3] 2.82% | activity change, negative = inhibition [4] -9.78% | activity change, negative = inhibition [5] -1.78% | activity change, negative = inhibition [6] 4.64% | activity change, negative = inhibition [7] -10.6% | % pathology change, negative = correction [8] 2.2% | Potency [10] | activity change, negative = inhibition [11] -2.1% | activity change, negative = cell killing [12] -25.3%

O=[N+]([O-])c1cc([N+](=O)[O-])c(C(F)(F)F)c([N+](=O)[O-])c1O
inactive: activation [13] 1.47% | activation [14] 0% | outcome [15]

N#[O+].[C-]#N.[C-]#N.[C-]#N.[C-]#N.[C-]#N.[Fe+2].[Na+].[Na+]
inactive: activity, negative = inhibition [16] 9.57% | activity change, negative = inhibition [17] 20.2%
